Assay results: ChEMBL document CHEMBL4196060, “Synthesis and biological evaluation of indole-based UC-112 analogs as potent and selective survivin inhibitors” (Eur J Med Chem, 2018)

Columns and labels:
Assay type in all cases: functional
[1] = Resistance index, ratio of IC50 for human KB-C2 cells to IC50 for IC50 for human KB-3-1 cells
[2] = Resistance index, ratio of IC50 for human M14/MDR1 cells to IC50 for human M14 cells
[3] = Resistance index, ratio of IC50 for human SW620/AD300 cells to IC50 for human SW620 cells

Oc1c(CN2CCCC2)cc(Cn2ccc3ccc(Cl)cc32)c2cccnc12
Ratio IC50 [1]: 0.15 | Ratio IC50 [2]: 4.8 | Ratio IC50 [3]: 0.21

COc1ccc2ccn(Cc3cc(CN4CCCC4)c(O)c4ncccc34)c2c1
Ratio IC50 [1]: 0.34 | Ratio IC50 [2]: 3.1 | Ratio IC50 [3]: 0.32

Oc1c(CN2CCCC2)cc(Cn2ccc3cc(F)ccc32)c2cccnc12
Ratio IC50 [1]: 0.13 | Ratio IC50 [3]: 0.17
